The record followed here is patent US11485726B2, “Compound for inhibiting and degrading tyrosine protein kinase ALK” (SHANGHAI MEIZER PHARMACEUTICALS CO., LTD., priority 2017, dated 2022).

By UniProt entry, the sequences of proteins in these tests, tags left out. Chains listed by the source or under a name are the forms on record and can include a tag or linker.
UniProt Q9UM73, with tags, fused parts or gaps: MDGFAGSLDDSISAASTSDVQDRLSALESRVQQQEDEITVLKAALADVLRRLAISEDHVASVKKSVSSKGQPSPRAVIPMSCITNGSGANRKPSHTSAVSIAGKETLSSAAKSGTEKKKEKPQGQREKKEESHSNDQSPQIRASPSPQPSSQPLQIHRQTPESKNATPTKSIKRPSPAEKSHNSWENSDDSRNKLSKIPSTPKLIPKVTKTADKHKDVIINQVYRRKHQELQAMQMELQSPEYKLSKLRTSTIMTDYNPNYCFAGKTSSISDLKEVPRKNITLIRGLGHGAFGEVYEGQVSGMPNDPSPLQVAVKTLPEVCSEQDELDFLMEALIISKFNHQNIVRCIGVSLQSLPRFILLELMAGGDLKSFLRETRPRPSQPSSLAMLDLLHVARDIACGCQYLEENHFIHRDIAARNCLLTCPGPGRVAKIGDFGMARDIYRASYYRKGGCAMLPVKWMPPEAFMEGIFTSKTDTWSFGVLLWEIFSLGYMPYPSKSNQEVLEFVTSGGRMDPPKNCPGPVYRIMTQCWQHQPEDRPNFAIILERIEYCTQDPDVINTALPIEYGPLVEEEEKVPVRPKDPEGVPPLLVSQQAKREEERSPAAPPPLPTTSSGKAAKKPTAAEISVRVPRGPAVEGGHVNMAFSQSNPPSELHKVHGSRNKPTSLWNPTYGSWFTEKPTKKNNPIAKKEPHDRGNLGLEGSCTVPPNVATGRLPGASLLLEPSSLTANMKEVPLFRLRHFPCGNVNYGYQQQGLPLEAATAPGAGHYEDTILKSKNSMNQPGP

The target of the experiment is ALK kinase (Homo sapiens, UniProt Q9UM73). Briefly: ALK protein degradation activity by Western blot in H2228 cells. It counts as cell-based. On the set-up: H2228 cell lines (human non-small cell line lung cancer cells, available from ATCC); host or cells: H2228 (human non-small cell lung cancer cells); the other entry of the earlier key: EML4 (Q9HC35, Echinoderm microtubule-associated protein-like 4). To be noted: NCI-H2228, 24 h, read-out: ALK degradation activity.

Where only a bound is given, the exact number is not on record here.

For `Cc1cc(Nc2ncc(Cl)c(Nc3ccccc3S(=O)(=O)C(C)C)n2)c(OC(C)C)cc1C1CCN(CC(=O)NCCOCCNc2cccc3c2C(=O)N(C2CCC(=O)NC2=O)C3=O)CC1` (stereo not shown) [Compound 34], the inhibition at 1 µM was more than 90%.
